Read-outs that look alike come from different tables or passages of the source.
Legend:
mGluR1a = mGluR1a (Rattus norvegicus, UniProt P23385); test: accumulation of inositol phosphates (phospholipase C activation) in transfected HEK 293 cells expressing mGluR1a; format: cell-based; details: for EC50: read-out: mGluR1a EC50 (agonist effect), IP accumulation; for IC50: read-out: mGluR1a IC50 values (printed in KB column, footnote a), Glu = 20 μM
mGluR2 = mGluR2 (Rattus norvegicus, UniProt P31421); test: accumulation of inositol phosphates in transfected HEK 293 cells expressing mGluR2 co-expressed with chimeric G protein; format: cell-based; details: for EC50: read-out: mGluR2 EC50 (agonist effect), IP accumulation; for IC50: read-out: mGluR2 IC50 values (printed in KB column, footnote a), Glu = 20 μM
Description: The biological activity of ACPT-I, -II and -III was tested on transfected HEK 293 cells expressing mGluR1a, mGluR2 or mGluR4a, chosen as prototypes of the metabotropic receptors of groups I, II or III.
For this purpose, the activation of phospholipase C was measured (accumulation of inositol phosphates).
The HEK 293 cells are cultured in a Dulbecco's modified Eagle medium (DMEM, Gibco BRL) to which 10% of foetal calf serum has been added, and transfected by electroporation as previously described by Gomeza et al., Molecular Pharmacology, 1996, 50:923-930 (1996).
The electroporation is carried out in a total volume of 300 μl with 10 μg of supporting DNA, plasmid DNA containing mGluR1a (0.3 μg), mGluR2 (2 μg) or mGluR4a (5 μg) and 10^7 cells.
In order to allow activation of the phospholipase C by mGluR2 and mGluR4a, which effect is easier to measure than the inhibition of the production of cAMP, these receptors are co-expressed with chimeric G, Gqo5 and Gqi9 proteins, as described by Gomeza. The pharmacological profiles of these 2 receptors determined according to this method, have already been described as identical to those characterized by measuring the inhibition of the formation of cAMP.
Determination of the accumulation of inositol phosphates (IP).
The determination of the accumulation of IP in transfected cells is carried out as described by Gomeza after labelling the cells for approximately 14 hours with [^3H]-myo-inositol (23.4 Ci/mol, NEN, France).
Stimulation is carried out for 30 minutes in a medium containing 10 mM LiCl in the presence of the drugs tested. The formation of the basic IP is determined after 30 minutes of incubation in the presence of 10 mM LiCl and pyruvate glutamate transaminase (1 U/ml) degrading the glutamate (Glu) and 2 mM of pyruvate in order to avoid the possible effects of Glu released by the cells. The results are expressed in the quantity of IP product with respect to the radioactivity present in the membranes.

Amino acid sequences for entries named in this document (tags omitted). Residues count along the entry.
UniProt P23385, 19-1199 limits assumed: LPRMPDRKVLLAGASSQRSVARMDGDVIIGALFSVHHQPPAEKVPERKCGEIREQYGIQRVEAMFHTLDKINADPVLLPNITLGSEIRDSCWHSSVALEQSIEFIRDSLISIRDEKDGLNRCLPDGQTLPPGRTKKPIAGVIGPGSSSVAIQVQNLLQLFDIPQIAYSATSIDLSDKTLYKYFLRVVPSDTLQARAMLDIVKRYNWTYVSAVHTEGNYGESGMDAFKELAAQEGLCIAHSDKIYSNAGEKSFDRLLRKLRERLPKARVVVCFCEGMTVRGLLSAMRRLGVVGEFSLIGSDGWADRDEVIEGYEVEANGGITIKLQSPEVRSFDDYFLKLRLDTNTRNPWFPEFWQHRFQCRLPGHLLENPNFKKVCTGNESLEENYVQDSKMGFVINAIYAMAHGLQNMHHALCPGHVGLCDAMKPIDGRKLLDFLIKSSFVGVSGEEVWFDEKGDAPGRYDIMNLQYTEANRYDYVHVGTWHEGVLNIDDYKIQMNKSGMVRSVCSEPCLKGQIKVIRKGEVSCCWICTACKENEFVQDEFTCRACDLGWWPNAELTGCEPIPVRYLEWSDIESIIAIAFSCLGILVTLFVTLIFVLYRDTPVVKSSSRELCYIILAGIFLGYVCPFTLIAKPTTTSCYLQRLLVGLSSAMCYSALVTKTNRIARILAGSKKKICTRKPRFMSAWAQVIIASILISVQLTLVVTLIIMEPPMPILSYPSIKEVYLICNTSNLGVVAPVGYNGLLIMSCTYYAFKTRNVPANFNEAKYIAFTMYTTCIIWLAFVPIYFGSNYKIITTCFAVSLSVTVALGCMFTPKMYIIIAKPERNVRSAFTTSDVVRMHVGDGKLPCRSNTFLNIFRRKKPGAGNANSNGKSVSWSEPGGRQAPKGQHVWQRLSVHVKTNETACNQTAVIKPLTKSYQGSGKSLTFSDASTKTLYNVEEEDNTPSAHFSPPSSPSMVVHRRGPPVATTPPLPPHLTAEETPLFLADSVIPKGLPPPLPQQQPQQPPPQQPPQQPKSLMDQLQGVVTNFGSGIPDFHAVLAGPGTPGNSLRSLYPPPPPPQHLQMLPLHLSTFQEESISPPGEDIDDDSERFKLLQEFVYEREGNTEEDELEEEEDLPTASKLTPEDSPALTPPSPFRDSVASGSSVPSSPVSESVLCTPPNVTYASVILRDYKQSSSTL
UniProt P31421, 19-872 limits assumed: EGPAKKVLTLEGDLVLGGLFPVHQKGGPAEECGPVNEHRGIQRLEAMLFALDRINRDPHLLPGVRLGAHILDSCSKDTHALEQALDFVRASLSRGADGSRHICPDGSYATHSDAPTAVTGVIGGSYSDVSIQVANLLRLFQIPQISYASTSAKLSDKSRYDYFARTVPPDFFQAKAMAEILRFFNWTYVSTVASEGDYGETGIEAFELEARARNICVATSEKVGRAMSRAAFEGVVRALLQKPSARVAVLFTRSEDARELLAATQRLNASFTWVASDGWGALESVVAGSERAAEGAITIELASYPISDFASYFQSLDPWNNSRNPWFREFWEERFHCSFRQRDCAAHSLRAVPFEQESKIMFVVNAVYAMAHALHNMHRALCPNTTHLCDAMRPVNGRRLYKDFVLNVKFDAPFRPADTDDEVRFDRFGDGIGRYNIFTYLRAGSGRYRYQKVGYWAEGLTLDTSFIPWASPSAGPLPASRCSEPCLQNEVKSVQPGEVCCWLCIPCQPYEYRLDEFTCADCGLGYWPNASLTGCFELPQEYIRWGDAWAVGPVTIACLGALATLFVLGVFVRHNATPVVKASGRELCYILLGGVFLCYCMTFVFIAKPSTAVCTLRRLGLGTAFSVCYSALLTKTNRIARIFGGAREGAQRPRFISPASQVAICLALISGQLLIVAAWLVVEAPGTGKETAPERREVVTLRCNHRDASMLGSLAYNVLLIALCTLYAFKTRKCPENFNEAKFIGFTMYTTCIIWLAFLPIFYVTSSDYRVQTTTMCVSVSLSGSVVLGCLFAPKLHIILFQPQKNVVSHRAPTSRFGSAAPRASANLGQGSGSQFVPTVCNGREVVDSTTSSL
UniProt P31423, 33-912 limits assumed: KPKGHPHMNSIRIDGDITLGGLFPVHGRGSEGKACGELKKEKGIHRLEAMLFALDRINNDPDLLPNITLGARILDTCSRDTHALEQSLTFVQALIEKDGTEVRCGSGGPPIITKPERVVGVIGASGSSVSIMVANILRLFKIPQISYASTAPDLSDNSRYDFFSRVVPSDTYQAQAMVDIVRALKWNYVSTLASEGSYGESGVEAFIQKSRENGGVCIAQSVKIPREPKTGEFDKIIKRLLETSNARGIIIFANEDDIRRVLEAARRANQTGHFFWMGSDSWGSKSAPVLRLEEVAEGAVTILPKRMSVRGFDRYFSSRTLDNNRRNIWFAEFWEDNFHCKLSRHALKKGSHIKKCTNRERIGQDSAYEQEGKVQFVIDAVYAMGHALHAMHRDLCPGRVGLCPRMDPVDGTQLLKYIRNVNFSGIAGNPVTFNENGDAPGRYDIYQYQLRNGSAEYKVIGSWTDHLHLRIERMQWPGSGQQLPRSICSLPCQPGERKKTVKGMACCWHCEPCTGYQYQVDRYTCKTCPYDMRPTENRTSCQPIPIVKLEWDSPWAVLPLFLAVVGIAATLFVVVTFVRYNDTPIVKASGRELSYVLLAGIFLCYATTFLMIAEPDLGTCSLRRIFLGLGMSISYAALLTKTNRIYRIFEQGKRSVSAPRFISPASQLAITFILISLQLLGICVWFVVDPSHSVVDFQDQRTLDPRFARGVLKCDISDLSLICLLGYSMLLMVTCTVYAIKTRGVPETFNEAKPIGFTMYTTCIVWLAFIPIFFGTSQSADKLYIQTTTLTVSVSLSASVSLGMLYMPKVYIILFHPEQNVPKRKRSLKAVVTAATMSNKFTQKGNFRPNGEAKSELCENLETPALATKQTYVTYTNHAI

mGluR4a = mGluR4a (Rattus norvegicus, UniProt P31423); test: accumulation of inositol phosphates in transfected HEK 293 cells expressing mGluR4a co-expressed with chimeric G protein; format: cell-based
[1] = tested on: ionotropic receptors (NMDA, AMPA and kainate receptors); test: patch clamp recording of granule cells of the cerebellum; format: cell-based, mice; details: ACPT 1 mM; NMDA or kainate 100 μM
Description: Culture and recording of the granule cells of the cerebellum
The granule cells of the cerebellum are cultured from 7 day-old baby mice as described by Van-Vliet, B. J., J. of Neurochemistry, 1989, .52, 1229-1239.
Recording is carried out using the technique known as a “patch clamp” in the full cell configuration and the molecules are applied using a rapid application technique.
Initially, tests were carried out in order to check whether the ACPT's were capable of activating or exercising an antagonist effect vis-à-vis the ionotropic receptors. These tests have shown that none of the ACPT enantiomers induces a current when they are placed in contact with the granule cells of the cerebellum at a concentration of 1 mM.
In the same batches, currents are on the contrary seen to be induced by NMDA (100 μM) or kainate (100 μM, which concentration allows activation of both the AMPA and kainate receptors), as envisaged given the activation of the NMDA and non-NMDA receptors. The antagonist effects of ACPT-I, ACPT-II and ACPT-III (1 mM) were also examined in responses induced by NMDA or kainate (100 μM).

| Compound | inhibition of the formation of IP induced by Glu in cells expressing mGluR1a, in words (mGluR1a; listed as ACPT-III (−)) | inhibition of the formation of IP induced by Glu in cells expressing mGluR1a, in words (mGluR1a; listed as ACTP-IIIa) | EC50 (mGluR1a; HEK 293 cells) [µM] | IC50 (mGluR1a) [µM] | inhibition of the responses induced by Glu in cells expressing mGluR2, in words (mGluR2; listed as ACPT-III (−)) | inhibition of the responses induced by Glu in cells expressing mGluR2, in words (mGluR2; listed as ACTP-IIIa) | EC50 (mGluR2; HEK 293 cells) [µM] | IC50 (mGluR2) [µM] | antagonist effect vis-à-vis Glu on mGluR4a, in words (mGluR4a) | slope of Shild curve, mGluR4a (mGluR4a) | inhibition of the formation of IP induced by Glu in cells expressing mGluR1a, in words (mGluR1a; listed as ACPT-III (+)) | inhibition of the formation of IP induced by Glu in cells expressing mGluR1a, in words (mGluR1a; listed as ACTP-IIIb) | inhibition of the responses induced by Glu in cells expressing mGluR2, in words (mGluR2; listed as ACPT-III (+)) | inhibition of the responses induced by Glu in cells expressing mGluR2, in words (mGluR2; listed as ACTP-IIIb) | agonist effect on mGluR4, in words (mGluR4a) | inhibition of responses induced by NMDA or kainate [1] [%] | inhibition of the formation of IP induced by Glu in cells expressing mGluR1a, in words (mGluR1a) | Kb (mGluR1a; read-out: mGluR1a KB (antagonist effect), HEK 293 cells, IP accumulation induced by Glu, Shild representation) [µM] | inhibition of the responses induced by Glu in cells expressing mGluR2, in words (mGluR2) | Kb (mGluR2; read-out: mGluR2 KB (antagonist effect), HEK 293 cells, IP accumulation induced by Glu, Shild representation) [µM] |
| --- | --- | --- | --- | --- | --- | --- | --- | --- | --- | --- | --- | --- | --- | --- | --- | --- | --- | --- | --- | --- |
| NC1(C(=O)O)C[C@@H](C(=O)O)[C@H](C(=O)O)C1 | inhibit the Glu responses, with a low strength | antagonists of mGluR1 and mGluR2 | > 3000 | 1000 | inhibit the Glu responses, with a low strength | antagonists of mGluR1 and mGluR2 | > 3000 | 300 | antagonist of mGluR4 | 0.877 |  |  |  |  |  |  |  |  |  |  |
| NC1(C(=O)O)C[C@H](C(=O)O)[C@@H](C(=O)O)C1 |  |  | > 3000 | 1000 |  |  | > 3000 | 150 |  |  | inhibit the Glu responses, with a low strength | antagonists of mGluR1 and mGluR2 | inhibit the Glu responses, with a low strength | antagonists of mGluR1 and mGluR2 | agonist of mGluR4 |  |  |  |  |  |
| N[C@@]1(C(=O)O)C[C@H](C(=O)O)[C@H](C(=O)O)C1 |  |  | > 3000 |  |  |  | > 3000 |  |  |  |  |  |  |  | agonist of mGluR4 | 10 | inhibit the formation of the IP's induced by the Glu | > 1000 | not obtained | > 3000 |

From US6433014B1, “Compounds consisting in particular of effectors of the central nervous system receptors sensitive excitatory amino acids, preparation and biological applications” (Centre National de la Recherche Scientifique (C.N.R.S.), priority 1997, dated 2002)
